Measured values reported in patent US20080312192A1, “Diaryl Urea Derivatives in the Treatment of Protein Kinase Dependent Diseases” (priority 2003, published 2008).

Chains of the proteins cited; added tags and fusions are not shown. Residues count along the entry.
UniProt P36888, 563-993 limits assumed: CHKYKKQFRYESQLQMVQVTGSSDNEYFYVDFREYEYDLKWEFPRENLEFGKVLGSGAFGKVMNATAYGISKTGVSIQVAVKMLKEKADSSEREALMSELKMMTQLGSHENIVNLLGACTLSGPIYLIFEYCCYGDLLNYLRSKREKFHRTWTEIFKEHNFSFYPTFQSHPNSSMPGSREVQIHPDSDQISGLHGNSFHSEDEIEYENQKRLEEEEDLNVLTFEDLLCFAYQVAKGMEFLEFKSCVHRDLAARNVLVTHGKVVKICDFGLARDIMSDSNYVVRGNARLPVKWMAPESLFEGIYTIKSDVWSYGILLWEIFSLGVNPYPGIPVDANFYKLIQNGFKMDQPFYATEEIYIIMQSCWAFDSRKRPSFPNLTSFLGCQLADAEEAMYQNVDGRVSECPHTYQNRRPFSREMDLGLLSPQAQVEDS

Target: Flt-3 (Homo sapiens, UniProt P36888)
Assay: Flt-3 kinase inhibition (GST-Flt-3, 33P incorporation into poly(Glu,Tyr))
Conditions: read-out: IC50 Flt-3

Compound	IC50
CNc1nccc(Oc2ccc(NC(=O)Nc3ccc(Cn4cnc(C)c4C)c(C(F)(F)F)c3)cc2)n1	120 nM
CN1CCC(Oc2ccc(NC(=O)Nc3ccc(Oc4cc(N)ncn4)cc3)cc2C(F)(F)F)CC1	140 nM
